According to US7462599:

Tests used:
[Gln^1]-Gastrin = target: T1, [Gln^1]-Gastrin
T1 chain: QGPWLEEEEEAYGWMDF

Gln^3-Aβ(3-11)a = target: T2, Gln^3-Aβ(3-11)a
T2 chain: QFRHDSGYE

H-Gln-Ala-Ala-NH2 = target: T3, H-Gln-Ala-Ala-NH2
T3 chain: QAA

H-Gln-Gln-OH = target: T4, H-Gln-Gln-OH
T4 chain: QQ

B1: recombinant human glutaminyl cyclase (QC, EC 2.3.2.5) (protein)
chain: VSPSASAWPEEKNYHQPAILNSSALRQIAEGTSISEMWQNDLQPLLIERYPGSPGSYAARQHIMQRIQRLQADWVLEIDTFLSQTPYGYRSFSNIISTLNPTAKRHLVLACHYDSKYFSHWNNRVFVGATDSAVPCAMMLELARALDKKLLSLKTVSDSKPDLSLQLIFFDGEEAFLHWSPQDSLYGSRHLAAKMASTPHPPGARGTSQLHGMDLLVLLDLIGAPNPTFPNFFPNSARWFERLQAIEHELHELGLLKDHSLEGRYFQNYSYGGVIQDDHIPFLRRGVPVLHLIPSPFPEVWHTMDDNEENLDESTIDNLNKILQVFVLEYLHL
[Gln^1]-Gastrin
  KM (substrate conversion by QC): 31 µM
Gln^3-Aβ(3-40)
  KM (buffer containing 1% DMSO): 89 µM
Gln^3-Aβ(3-11)a
  KM (determined in absence of DMSO): 87 µM
H-Gln-Ala-Ala-NH2
  KM (substrate conversion by QC): 87 µM
H-Gln-Gln-OH
  KM (discontinuous method): KM=175±18 µM
